These are literature values, as cited in article PMC6317804, “The integration of pharmacophore-based 3D QSAR modeling and virtual screening in safety profiling: A case study to identify antagonistic activities against adenosine receptor, A2A, using 1,897 known drugs” (PLoS ONE, 2019).

Where two headings read alike, the source gives them in different places.

The series addresses adenosine receptor 2A (A2A) (Homo sapiens, UniProt P29274). The note with it: cited from earlier work.

The term IC50 denotes the concentration at which inhibition is half-maximal. Turning to `Cc1cc(C)n(-c2cc(NC(=O)Cc3ccc(S(C)(=O)=O)cc3)nc(-c3ccccn3)n2)n1`, the IC50 is 0.1 µM.
With `Cc1ccccc1-n1nc(C)c(-c2ccc3nccnc3c2)c1Nc1ccccc1C(=O)O`, under “S1 Table, compounds given as SMILES, downloaded from ChEMBL”, the IC50 was 50 µM.
